Our source for the Kd and IC50 values is patent US9012603B2, “Peptides that block the binding of IgG to FcRn” (Biogen Idec Hemophilia Inc., priority 2006, dated 2015).

Amino acid sequences for entries named in this document (tags omitted). Residues count along the entry.
UniProt P55899, 24-297: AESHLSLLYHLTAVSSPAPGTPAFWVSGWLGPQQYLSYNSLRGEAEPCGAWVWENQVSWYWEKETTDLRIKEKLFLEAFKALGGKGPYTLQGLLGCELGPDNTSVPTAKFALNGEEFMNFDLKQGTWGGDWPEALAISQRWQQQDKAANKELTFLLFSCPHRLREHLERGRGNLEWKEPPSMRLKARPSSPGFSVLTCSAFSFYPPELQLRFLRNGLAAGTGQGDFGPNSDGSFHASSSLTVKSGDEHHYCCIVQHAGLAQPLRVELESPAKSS

pIC50, pKd: −log10 of the molar value. Where two headings read alike, the source gives them in different places. Some results are limits rather than exact numbers.

One test concerns the target soluble human FcRn (Homo sapiens, UniProt P55899). The experiment in a line: Equilibrium binding constants (KD) by surface plasmon resonance (Biacore). (In general: In SPR one partner is held on a chip, and binding of the other changes the refractive index at the surface.)
The target of test [1] is soluble human FcRn (shFcRn) (Homo sapiens, UniProt P55899). The experiment in a line: Peptide-IgG competition ELISA. Particulars: 3 nM human IgG, pH 6. (An ELISA detects its analyte on a solid surface through an enzyme-linked reagent.)

Broadly, the pKd is the negative decadic logarithm of the Kd, by convention in mol/L. A word on the pIC50: it is the negative decadic logarithm of the IC50, by convention in mol/L. Lower therefore signals a large IC50. “QRF-Pen-TG-Dap(Guanyl)-FGGLYPCNGP [Peptide No. 297]”: the pKd at soluble human FcRn (read-out: KD (pH 6), pH 6) was 4.89; on soluble human FcRn (read-out: KD pH 7.4, pH 7.4), 4.80. In test [1], this substance had a pIC50 of 4.27.

“QRF-Pen-TGHFG-Sar-NMeLeu-YPCNGP [Peptide No. 187]”: the pKd was 7.34 on soluble human FcRn (read-out: KD (pH 6), pH 6) and 6.64 at soluble human FcRn (read-out: KD pH 7.4, pH 7.4). Further, the pIC50 in test [1] was 6.38.

Turning to “QRF-Pen-TGH-(1-napthylalanine)-GGLYPCNGP [Peptide No. 61]”, on soluble human FcRn (read-out: KD (pH 6), pH 6), the pKd is 5.66. The same substance had a pIC50 in test [1] of 4.89.

With QRF-C-TGHFGGLYP-c-NGP [Peptide No. 30], the negative-log Kd (pKd) at soluble human FcRn (read-out: KD (pH 6), pH 6) was 4.51.

For “QRF-Asp-TGHFGGLYP-Dab-NGP [Peptide No. 38]”, the pKd on soluble human FcRn (read-out: KD (pH 6), pH 6) was 4.77; at soluble human FcRn (read-out: KD pH 7.4, pH 7.4), 3.82. For the same substance, the pIC50 in test [1] is 4.17.

In turn, QRFCTGHFGALYPCNGP [SEQ ID NO: 32] gave a pIC50 in test [1] of less than 3.90.

Turning to “RF-Pen-TG-Dab-FG-Sar-NMeL-YPC [Peptide No. 253]”, the pKd at soluble human FcRn (read-out: KD (pH 6), pH 6) was 5.92; on soluble human FcRn (read-out: KD pH 7.4, pH 7.4), 5.92. In addition, the pIC50 in test [1] was 4.80.

Consider RF-Pen-TGHFGGLYPC [Peptide No. 99], for which the negative logarithm of the Kd (pKd) on soluble human FcRn (read-out: KD (pH 6), pH 6) was 6.77; at soluble human FcRn (read-out: KD pH 7.4, pH 7.4), 5.47. Further, the pIC50 in test [1] is 5.70.

In the case of “QRF-Pen-TGHFGG-M-YPCNGP [Peptide No. 117]”, at soluble human FcRn (read-out: KD (pH 6), pH 6), the pKd is 6.36. This substance also gave a pIC50 in test [1] of 5.11.

“QRF-V-TGHF-G-p-LYP-W-NGP [Peptide No. 172]” showed a pIC50 in test [1] of 3.82.

Turning to QRFCTGHF-Apa-LYPCNGP [Peptide No. 35], in test [1], the pIC50 was less than 3.90.

Take “QRF-Pen-TGHFG-Sar-W-YPCNGP [Peptide No. 238]”: at soluble human FcRn (read-out: KD (pH 6), pH 6), the pKd is 7.17. In test [1], this substance showed a pIC50 of 6.00.

“AGNSFCRGRPGHFGGCYLFGTGGGK [SEQ ID NO: 10]”: the negative-log IC50 (pIC50) in test [1] was 4.48.

With “QRF-Pen-TGHF-a-Sar-NMeLeu-YPCNGP [Peptide No. 188]”, on soluble human FcRn (read-out: KD (pH 6), pH 6), the pKd was 6.14. The same substance gave a pIC50 in test [1] of 5.19.

For “QRF-Pen-TGHF-y-G-LYPCNGP [Peptide No. 53]”, the pKd at soluble human FcRn (read-out: KD (pH 6), pH 6) was 6.49. The substance further showed a negative logarithm of the IC50 (pIC50) in test [1] of 5.49.

In test [1], “RF-Pen-TGHFG-Sar-NMeLeu-YPC [Peptide No. 235]” had a pIC50 of 6.31.

“QRF-Pen-T-Sar-HFGGLYP-C-NGP [Peptide No. 108]”: the pKd on soluble human FcRn (read-out: KD (pH 6), pH 6) is 4.06. The substance further had a negative logarithm of the IC50 (pIC50) in test [1] of less than 3.90.

In the case of “QRF-Pen-TGHF-G-h-LYPCNGP [Peptide No. 42]”, the pKd on soluble human FcRn (read-out: KD (pH 6), pH 6) is 5.70; on soluble human FcRn (read-out: KD pH 7.4, pH 7.4), 4.70. Further, in test [1], the pIC50 was 4.92.

“QRF-Pen-TGHFGGL-(2-pyridylAla)-PCNGP [Peptide No. 66]” gave a pIC50 in test [1] of less than 3.90.

Take “QRF-Pen-TGH-(4-MePhe)-GGLYPCNGP [Peptide No. 90]”: on soluble human FcRn (read-out: KD (pH 6), pH 6), the negative-log Kd (pKd) is 6.70. In test [1], this substance had a pIC50 of 5.77.

With “QRF-Pen-TGH-(Cha)-GGLYPCNGP [Peptide No. 93]”, the pKd at soluble human FcRn (read-out: KD (pH 6), pH 6) is 5.35. Moreover, the pIC50 in test [1] was 4.51.

In the case of “QRF-Pen-TGHF-p-G-LYPCNGP [Peptide No. 48]”, the pKd was 6.10 on soluble human FcRn (read-out: KD (pH 6), pH 6) and 4.68 on soluble human FcRn (read-out: KD pH 7.4, pH 7.4). The substance also showed a pIC50 in test [1] of 5.30.

For “RF-Pen-TGHF-q-Sar-NMeLeu-YPC [Peptide No. 245]”, the pKd at soluble human FcRn (read-out: KD (pH 6), pH 6) was 6.44. The pIC50 in test [1] was 5.35.

Take “RF-Pen-TGFFG-Sar-NMeLeu-YPC [Peptide No. 265]”: the negative logarithm of the Kd (pKd) on soluble human FcRn (read-out: KD (pH 6), pH 6) was 5.48; on soluble human FcRn (read-out: KD pH 7.4, pH 7.4) it was 5.38. The substance also gave a negative-log IC50 (pIC50) in test [1] of 4.57.

As for “QRF-Pen-TGHF-i-G-LYPCNGP [Peptide No. 51]”, at soluble human FcRn (read-out: KD (pH 6), pH 6), the pKd was 5.59. The substance further showed a pIC50 in test [1] of 5.03.

Regarding “QRF-Pen-TGHFG-Sar-LYPCNGP [Peptide No. 112]”, in test [1], the pIC50 was 6.05.

As to “RF-Pen-TG-2PyridylAla-FG-Sar-NMeL-YPC [Peptide No. 249]”, the pKd was 6.48 on soluble human FcRn (read-out: KD (pH 6), pH 6) and 6.39 at soluble human FcRn (read-out: KD pH 7.4, pH 7.4). Moreover, the negative logarithm of the IC50 (pIC50) in test [1] was 5.21.
